Assay results: US20170327577A1 (CALIFORNIA INSTITUTE FOR BIOMEDICAL RESEARCH, published 2017)

Molecular target: T1, GLP-2 receptor (UniProt O95838 1-553, limits assumed)
T1 sequence (looked up): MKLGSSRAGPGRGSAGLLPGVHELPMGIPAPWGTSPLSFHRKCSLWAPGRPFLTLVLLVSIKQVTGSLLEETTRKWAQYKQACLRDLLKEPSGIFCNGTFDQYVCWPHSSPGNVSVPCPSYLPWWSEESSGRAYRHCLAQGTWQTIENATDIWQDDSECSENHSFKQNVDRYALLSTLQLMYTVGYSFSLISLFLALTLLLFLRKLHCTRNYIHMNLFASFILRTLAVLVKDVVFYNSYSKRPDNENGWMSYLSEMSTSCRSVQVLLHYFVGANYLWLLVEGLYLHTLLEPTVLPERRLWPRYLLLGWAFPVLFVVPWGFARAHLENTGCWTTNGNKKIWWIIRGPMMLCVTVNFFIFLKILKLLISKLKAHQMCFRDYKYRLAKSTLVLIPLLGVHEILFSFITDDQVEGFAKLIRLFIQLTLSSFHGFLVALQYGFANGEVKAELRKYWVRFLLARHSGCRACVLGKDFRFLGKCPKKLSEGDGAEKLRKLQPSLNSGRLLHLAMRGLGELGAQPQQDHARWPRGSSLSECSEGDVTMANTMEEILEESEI
Assay: cell-based or functional assay

## HGDGSFSDEMNTILDNLAARDFINWLIQTKITD [GLP2]
  EC50, CRE-luciferase reporter in HEK293 cells: 0.046 nM
